Measured values: PubChem BioAssay AID504326 (The Scripps Research Institute Molecular Screening Center, 2011)
The list shows a part of the results, in another mix than the full data. Activity calls are given as the source filed them. Rule as the data show it: active = activation above about 18%; inactive = the rest.

By UniProt entry, the sequences of proteins in these tests, tags left out.
UniProt P35372, whole entry, looked up: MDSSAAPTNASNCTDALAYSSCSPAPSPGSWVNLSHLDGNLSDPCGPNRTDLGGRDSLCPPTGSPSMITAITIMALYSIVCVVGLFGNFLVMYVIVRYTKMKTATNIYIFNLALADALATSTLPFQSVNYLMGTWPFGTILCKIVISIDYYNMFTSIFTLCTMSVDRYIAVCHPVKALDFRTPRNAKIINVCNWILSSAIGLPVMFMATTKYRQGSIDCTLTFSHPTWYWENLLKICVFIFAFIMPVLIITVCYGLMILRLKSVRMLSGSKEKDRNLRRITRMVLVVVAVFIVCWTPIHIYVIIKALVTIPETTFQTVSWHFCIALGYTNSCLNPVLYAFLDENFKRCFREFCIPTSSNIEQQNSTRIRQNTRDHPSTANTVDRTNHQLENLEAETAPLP
UniProt P41143, whole entry, looked up: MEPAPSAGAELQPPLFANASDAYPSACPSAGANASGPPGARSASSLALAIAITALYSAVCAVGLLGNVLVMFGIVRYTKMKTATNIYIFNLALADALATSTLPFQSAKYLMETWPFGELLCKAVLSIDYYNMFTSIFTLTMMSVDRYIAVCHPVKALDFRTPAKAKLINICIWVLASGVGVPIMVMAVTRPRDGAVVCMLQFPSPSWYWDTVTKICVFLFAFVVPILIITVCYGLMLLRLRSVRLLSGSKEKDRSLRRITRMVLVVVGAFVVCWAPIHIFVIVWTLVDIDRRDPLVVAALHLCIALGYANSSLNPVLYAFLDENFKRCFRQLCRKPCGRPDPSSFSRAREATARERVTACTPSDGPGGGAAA

Molecular target: Mu-type opioid receptor (Homo sapiens) + Delta-type opioid receptor (Homo sapiens) (UniProt P35372+P41143)
Test: inducers of mu-delta opioid receptor heterodimers – cell-based, luminescence, primary screen (AID 504326);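 also: 0% = vehicle-treated cells and 100% = reference agonist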
Conditions: cells, OPRM1-OPRD1 heterodimerization, at 9.3 µM, hits give high values

SMILES | activation
CCCCOc1ccccc1NC(=O)Cn1c(-c2nonc2N)nc2ccccc21 | inactive: 4.07%
CCc1cccc(C)c1N(C(=O)Cn1c(=O)[nH]c2ccccc21)C(C)COC (centres undefined) | inactive: 0.54%
CSc1nc(N)nc2c1ncn2CC(=O)N1CCN(Cc2c(C)cc(C)cc2C)CC1 | inactive: 14.9%
COc1cccc(CNc2nc3ccccc3n2CCN2CCCCC2)c1OC | inactive: 2.39%
CCN(CC)CCn1c(NC(=O)c2ccc(C(F)(F)F)cc2)nc2ccccc21 | inactive: 0.98%
Cn1c(=O)c2c(nc(CN3CCOCC3)n2CCN2CCOCC2)n(C)c1=O | inactive: -0.02%
O=S(=O)(Nc1ccc2c(c1)nc1n2CCN(Cc2ccccc2)C1)c1ccc(F)cc1 | inactive: -2.54%
CC1Cc2ccccc2N1C(=O)Cn1cnc2ccccc21 (centres undefined) | inactive: -0.83%
C[C@H](O)[C@@H]1C(=O)N2CCc3ccc(N4CCN(C)CC4)cc3[C@@H]2C[C@@H]1N(C)C(=O)c1ccc(C#N)cc1 | inactive: 0.68%
CCN(CC)C(=O)Cn1c(=O)n(Cc2ccccc2Cl)c2c1c(=O)n(C)c(=O)n2C | inactive: -0.28%
O=C(Cn1cnc2ccccc21)Nc1ccc(F)c(F)c1 | inactive: 1.99%
COC(=O)c1cccc(NC(=O)Cn2cnc3c2c(=O)n(C)c(=O)n3C)c1 | inactive: -1.37%
O=C(COc1ccccc1)OC1CN2CCC1CC2 (centres undefined) | inactive: -1.59%
Cc1ccc2c(c1)C1CN(C)CCC1N2S(=O)(=O)c1cccc(C(F)(F)F)c1 (centres undefined) | inactive: 1.67%
O=C(Nc1ccncc1[N+](=O)[O-])c1ccc([N+](=O)[O-])cc1[N+](=O)[O-] | inactive: 6.65%
Cc1nc2cc(C(F)(F)F)ccc2n1CCNc1nc(-c2ccc(F)cc2)cs1 | inactive: 0.66%
CCOCN(C(=O)Cn1cnc2ccccc21)c1c(C)cccc1CC | inactive: -2.33%
c1ccc(Cn2c(CNc3nc4ccccc4n3CCN3CCOCC3)nc3ccccc32)cc1 | inactive: -2.41%
CCC(C(=O)NC1CCCCC1)n1c(SCc2cccc(C)c2)nc2ccncc21 (centres undefined) | inactive: -0.13%
O=C(C1CCCN(S(=O)(=O)c2cccnc2)C1)N1CCn2c1nc1ccccc12 (centres undefined) | inactive: -0.06%
O=C(Cn1cnc2ccccc21)Nc1ccc(SC(F)F)cc1 | inactive: 2.87%
CC(NC(=O)Cn1cnc2c1c(=O)n(C)c(=O)n2C)c1ccccc1 (centres undefined) | inactive: 1.05%
COc1ccc(CNC(=O)Cn2cnc3c(NCc4ccccc4)ncnc32)cc1 | inactive: -4.22%
O=C(c1ccccc1)N1CCn2c(nc3ccccc32)C1 | inactive: -1.1%
CCc1ccc(S(=O)(=O)N2c3ccc(C)cc3C3CN(C)CCC32)cc1 (centres undefined) | inactive: -2.1%
CCc1cccc(C)c1N(C(=O)Cn1c(COC)nc2ccccc21)C(C)COC (centres undefined) | inactive: -2.04%
O=[N+]([O-])c1ccc2c(c1)nc1n2CCN(c2ccccc2)C1 | inactive: -2.11%

SMILES | activation
O=C(Cn1cnc2c(NC(=O)OCc3ccccc3)ncnc21)NCCN1CCOCC1 | inactive: -1.45%
CC(C)NC(=O)Cn1c(SCC(=O)NC2CCCC2)nc2ccccc21 | inactive: -3.19%
N=c1n(CCN2CCCC2)c2ccccc2n1CC(O)c1ccc(Cl)c(Cl)c1 (centres undefined) | inactive: 1.46%
COc1ccc2c(c1)C1(Nc3ccccc3-c3nc4ccccc4n31)C(=O)N2C (centres undefined) | inactive: -2.53%
CC(C)[C@H](NC(=O)N1CCn2c1nc1ccccc12)C(=O)NC1CC1 | inactive: -2.27%
COc1cccc(NC(=O)[C@H](CC(C)C)NC(=O)N2CCn3c2nc2ccccc23)c1 | inactive: -0.77%
C=CCn1c(=O)c2c(nc3n2CCN3c2cccc(Cl)c2C)n(C)c1=O | inactive: -2.68%
CN(C)CCn1c(NCc2ccc3c(c2)OCO3)nc2ccccc21 | inactive: -2.02%
COC(=O)C[C@H](NC(=O)Cn1cnc2c(NCc3ccccc3)ncnc21)C(=O)OC | inactive: -2.13%
COP1(=S)c2c(C)nn(CCC#N)c2N=C(c2ccc(F)cc2)N1C (centres undefined) | inactive: -1.66%
Cc1ccc(C)c(S(=O)(=O)N2CCN(C(=O)Cn3cnc4c3c(=O)n(C)c(=O)n4C)CC2)c1 | inactive: -0.23%
O=C(C1CCN(S(=O)(=O)c2cccc3nsnc23)CC1)N1CCn2c1nc1ccccc12 | inactive: -14.3%
CSc1nc(N)nc2c1ncn2CC(=O)Nc1ccc(C)c(C)c1 | inactive: -1.86%
N=c1n(CCN2CCCCC2)c2ccccc2n1CC(=O)c1cccs1 | inactive: -0.73%
O=C(Cn1cnc2c(OCc3ccccc3)ncnc21)N1CCN(c2ccccn2)CC1 | inactive: -0.47%
O=C(Nc1ccccc1C(F)(F)F)N1CCC(n2c(=O)[nH]c3ccccc32)CC1 | inactive: -1.25%
N#CCC(=O)N/N=C\c1cccc(OC/C=C/c2ccccc2)c1 | inactive: 3.46%
CC(C)[C@H](NC(=O)N1CCn2c1nc1ccccc12)C(=O)N[C@H](Cc1ccccc1)C(=O)O | inactive: -1.25%
COC(=O)[C@H](Cc1ccc(O)cc1)NC(=O)Cn1cnc2c(SC)nc(N)nc21 | inactive: 0.17%
CC(C)[Si]1(C(C)C)OCC2OC(n3cnc4c(N)ncnc43)C(N)C2O[Si](C(C)C)(C(C)C)O1 (centres undefined) | inactive: 0.31%
NC(=O)CC(NC(=O)c1cccc(Br)c1)c1ccc(NC2CCN(Cc3ccccc3)CC2)c([N+](=O)[O-])c1 (centres undefined) | inactive: -1.51%
N=c1n(CCN2CCCCC2)c2ccccc2n1CC(O)c1ccc(Cl)c(Cl)c1 (centres undefined) | inactive: 5.23%
Cc1ccc(S(=O)(=O)Nc2ccc(Cl)cc2)cc1NC(=O)Cn1cnc2c1c(=O)n(C)c(=O)n2C | inactive: -0.17%
CC(C)NC(=O)CSc1nc2ccccc2n1CC(=O)N(C(C)C)C(C)C | inactive: 0.06%
Cc1ccc2c(c1)C1CN(C)CCC1N2C(=O)c1ccco1 (centres undefined) | inactive: -2.2%
O=C(Cn1c(NCCO)nc2ccccc21)Nc1cccc(S(=O)(=O)N2CCCC2)c1 | inactive: -2.24%
CCN(CC)c1ccc(CNc2nc3ccccc3n2CCN2CCOCC2)cc1 | inactive: -2.89%
